SMILES strings stand for the structures.

Protein sequences, listed by entry. Tags and fused reporters are not part of them. Residues count along the entry.
UniProt O00255, 2-610: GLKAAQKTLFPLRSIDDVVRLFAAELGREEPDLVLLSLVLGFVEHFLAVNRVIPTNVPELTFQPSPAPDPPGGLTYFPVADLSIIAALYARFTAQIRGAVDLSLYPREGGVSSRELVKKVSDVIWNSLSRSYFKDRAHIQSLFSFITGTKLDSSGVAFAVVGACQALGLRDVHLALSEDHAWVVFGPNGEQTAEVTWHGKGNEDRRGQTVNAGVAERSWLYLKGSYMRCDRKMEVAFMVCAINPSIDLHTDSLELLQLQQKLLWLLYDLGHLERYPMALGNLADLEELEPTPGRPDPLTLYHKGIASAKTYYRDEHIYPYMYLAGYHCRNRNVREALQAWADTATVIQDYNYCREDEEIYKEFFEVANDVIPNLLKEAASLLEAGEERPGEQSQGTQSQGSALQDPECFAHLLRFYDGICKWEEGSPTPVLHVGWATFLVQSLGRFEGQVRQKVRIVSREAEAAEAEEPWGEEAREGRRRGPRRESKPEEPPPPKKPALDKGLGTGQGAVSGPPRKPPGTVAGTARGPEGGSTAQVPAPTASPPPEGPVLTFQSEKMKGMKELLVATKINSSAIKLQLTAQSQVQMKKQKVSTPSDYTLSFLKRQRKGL

Among the data in patent US20260055108A1, “TRIAZINE COMPOUNDS AND USES THEREOF” (HUTCHMED LIMITED, priority 2022, published 2026) are IC50 values, retold here.

The experiment has as its target Recombinant human Menin protein (2-610) / MLL polypeptide binding (Homo sapiens (Human), UniProt O00255). Nature of the experiment: Menin and MLL protein binding at a molecular level (fluorescence polarization method). As to conditions: inhibition of Menin / MLL polypeptide binding. The source says: Example 3: Determination of the Activity of the Compounds of the Present Invention on Menin and MLL Protein Binding at a Molecular Level (Fluorescence Polarization Method)
1. Reagents, Materials and Instruments:
• Recombinant human Menin protein (2-610): ChemPartner, CP2021020801; • MLL polypeptide (6-FAM-Ahx-SG-40): GL Biochem, 865700; • Trizma® hydrochloride buffer solution (Tris): Sigma, T2194-1 L; • NaCl: Invitrogen, AM9760G; • TCEP: Sigma, 646547; • DMSO: Sigma, D4540; • 384-well plate: Corning, 4514; • Envision: PerkinElmer.
2. Preparation of Reaction Solutions […]
The vertical polarization S value and the horizontal polarization P value (excitation wavelength was 480 nm, and emission wavelength was 535 nm) were measured with Envision. […]
• calculated by using software XL-Fit™ (version 5.3) supplied by ID Business Solutions (Guildford, UK), which is an additional software to Microsoft Excel.
Background: In fluorescence polarisation assays a small probe gives low polarisation when free and higher when bound to something large.

A word on the IC50: it is the concentration at which inhibition is half-maximal. As for `CCN(C(=O)c1cc(F)ccc1Oc1nncnc1N1CC2(CCN(CC3CCN(C(=O)C4(C(=O)N(C)C)CC4)CC3)CC2)C1)C(C)C` [Compound 19, 2-((5-(7-((1-(1-(dimethylcarbamoyl)cyclopropane-1-carbonyl)piperidin-4-yl)methyl)-2,7-diazaspiro[3.5]nonan-2-yl)-1,2,4-triazin-6-yl)oxy)-N-ethyl-5-fluoro-N-isopropylbenzamide], the IC50 was determined as 0.369 µM.
